The text below walks through data of patent US20110283416A1, “METHODS FOR PLANT FIBER CHARACTERIZATION AND IDENTIFICATION” (LE CENTRE NATIONAL DE LA RECHERCHE SCIENTIFIQUE, priority 2008, published 2011).

The chains behind the UniProt entries cited, without tags or fusion partners. Where a name states a change or a piece, a line headed by the entry shows the natural chain unless it says otherwise.
UniProt Q9LZ31: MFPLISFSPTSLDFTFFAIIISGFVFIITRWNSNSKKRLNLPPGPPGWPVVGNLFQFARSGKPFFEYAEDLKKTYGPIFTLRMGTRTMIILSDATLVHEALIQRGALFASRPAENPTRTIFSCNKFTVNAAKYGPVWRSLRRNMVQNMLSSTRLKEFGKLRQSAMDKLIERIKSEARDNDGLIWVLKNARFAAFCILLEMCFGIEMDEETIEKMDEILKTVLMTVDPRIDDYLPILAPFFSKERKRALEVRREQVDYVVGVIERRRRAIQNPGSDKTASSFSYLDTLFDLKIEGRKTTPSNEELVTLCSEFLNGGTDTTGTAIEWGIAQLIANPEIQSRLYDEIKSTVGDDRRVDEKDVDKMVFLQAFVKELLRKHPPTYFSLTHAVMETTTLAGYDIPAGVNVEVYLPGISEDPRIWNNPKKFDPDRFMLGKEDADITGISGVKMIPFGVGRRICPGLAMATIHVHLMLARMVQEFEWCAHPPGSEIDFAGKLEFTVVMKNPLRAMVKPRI

The target in the assay is CYP77A4 (Arabidopsis thaliana, UniProt Q9LZ31). The assay can be described thus: Kinetic studies of fatty acid metabolism by CYP77A4. The class given is biochemical. As to conditions: read-out: Km for metabolism by CYP77A4; 4.5 pmoles CYP77A4, 5 min; calculated with Enzyme Kinetics (Sigma Plot).

In general, Km refers to the substrate concentration at which the rate is half of its maximum. With `CCCCCCCC/C=C\CCCCCCCC(=O)O` [oleic acid], the Km was 87 µM.
